The list shows a part of the results, in another mix than the full data. Active and inactive are the calls of the source. No stated cut-off is given here; in the data, active means inhibition above about 40%; inactive means the rest.
molecular target: ATP-dependent translocase ABCB1 (Homo sapiens) (UniProt P08183); test: blockers of ABCB1-mediated dye efflux – cell-based, multiplex, flow cytometry, ABCG2 counter-screen, primary screen (AID 1326); conditions: CCRF-Adr cells, JC-1 efflux, at 6.6 µM, hits give high values;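 further: 0% = vehicle and 100% = reference inhibitor; higher value means more JC-1 retained so stronger ABCB1 efflux block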

Amino acid sequences for entries named in this document (tags omitted).
UniProt P08183, whole entry: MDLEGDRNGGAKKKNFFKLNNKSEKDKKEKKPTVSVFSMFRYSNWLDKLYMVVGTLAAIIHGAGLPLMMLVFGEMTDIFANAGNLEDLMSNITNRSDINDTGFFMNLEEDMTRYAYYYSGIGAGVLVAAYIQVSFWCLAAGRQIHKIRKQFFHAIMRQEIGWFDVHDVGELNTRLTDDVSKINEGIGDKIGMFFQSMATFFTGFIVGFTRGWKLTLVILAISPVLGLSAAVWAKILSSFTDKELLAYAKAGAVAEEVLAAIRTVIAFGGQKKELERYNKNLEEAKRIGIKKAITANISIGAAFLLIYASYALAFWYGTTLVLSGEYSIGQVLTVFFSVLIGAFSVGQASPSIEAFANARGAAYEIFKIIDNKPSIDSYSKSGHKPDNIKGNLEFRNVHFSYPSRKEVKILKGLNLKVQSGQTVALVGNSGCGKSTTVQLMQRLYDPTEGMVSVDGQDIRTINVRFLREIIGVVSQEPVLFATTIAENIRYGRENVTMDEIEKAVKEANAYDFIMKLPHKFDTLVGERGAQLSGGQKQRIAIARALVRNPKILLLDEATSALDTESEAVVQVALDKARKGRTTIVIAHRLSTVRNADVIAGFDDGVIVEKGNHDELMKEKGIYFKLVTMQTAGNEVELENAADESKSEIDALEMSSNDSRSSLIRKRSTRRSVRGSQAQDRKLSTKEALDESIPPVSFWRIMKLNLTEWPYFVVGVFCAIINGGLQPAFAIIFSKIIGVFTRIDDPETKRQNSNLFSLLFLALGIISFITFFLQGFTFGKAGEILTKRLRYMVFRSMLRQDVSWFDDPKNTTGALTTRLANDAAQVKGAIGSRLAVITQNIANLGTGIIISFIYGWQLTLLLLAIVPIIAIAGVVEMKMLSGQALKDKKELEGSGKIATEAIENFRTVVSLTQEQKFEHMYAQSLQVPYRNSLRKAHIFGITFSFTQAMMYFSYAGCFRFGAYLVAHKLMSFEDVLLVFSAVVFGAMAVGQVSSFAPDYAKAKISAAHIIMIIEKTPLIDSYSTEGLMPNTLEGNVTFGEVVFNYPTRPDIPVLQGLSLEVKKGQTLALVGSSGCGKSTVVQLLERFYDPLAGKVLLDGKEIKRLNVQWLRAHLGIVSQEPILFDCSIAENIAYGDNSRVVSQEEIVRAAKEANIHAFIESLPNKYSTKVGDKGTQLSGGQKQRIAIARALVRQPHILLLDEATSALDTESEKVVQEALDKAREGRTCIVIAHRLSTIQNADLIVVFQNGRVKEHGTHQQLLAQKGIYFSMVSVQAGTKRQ

**Q.** How did the inhibition turn out when Cc1cc(C)cc(OP(C)(N)=O)c1 (stereo unspecified) was run?
**A.** inactive: 1.85%

— PubChem BioAssay AID1326 (NMMLSC, 2008)
